Data reported in patent US8709419B2, “Combination therapy” (Hoffmann-La Roche, Inc., priority 2010, dated 2014).
Read-outs that look alike come from different tables or passages of the source.

What was measured:
[1] = system: Human HT-29 Cell Xenografts; test: HT-29 xenograft mice, Example 5 (Compound I / cetuximab, treatment day 12-34): tumor growth inhibition, regression, survival; type: in vivo; conditions: Ex.5: cetuximab 40 mg/kg 2x/wk ip
Experimental: Differences between groups were considered to be significant when the probability value (p) was ≦0.05.
For survival assessment, the percent of increased life space (ILS) was calculated as: 100×[(median survival day of treated group−median survival day of control group)/median survival day of control group]. Median survival was determined utilizing Kaplan Meier survival analysis. […] Differences between groups were considered significant when the probability value (p) was ≦0.05.
Tumor measurements were taken once or twice per week. All animals were individually followed throughout the experiment.

[2] = Toxicity in Example 6 study: body weight change, mortality, gross observation
[3] = system: Human HT-29 Cell Xenografts
[4] = Toxicity in Example 5 study: body weight change, mortality, gross observation
[5] = Ex.6: cetuximab 40 mg/kg 2x/wk ip
[6] = Ex.6: cetuximab 40 mg/kg 2x/wk ip, animals of 10 per group
[7] = Ex.5: cetuximab 40 mg/kg 2x/wk ip

Substance: Cetuximab: monoclonal antibody that targets EGFR, sold as Erbitux by ImClone Systems
- % ILS [1]: 16%
- % Inhibition end of study Day: 34 [1]: 51%
- % T/C end of study Day: 34 [1]: 49%
- % Tumor Growth Inhibition [1]: 51%
- Mean Tumor Volume (mm^3) End Study [1]: 1052.49 mm^3
- Complete Regression ([1]; animals of 10 per group): 0
- Partial Regression ([1]; animals of 10 per group): 0
- 50% Treatment Days ([1]; median survival): 37 days
- # animals ≧ 20% BWL [2, 5]: 0
- % Change in Body Weight at end of Study Day 32 [2, 5]: 4.0%
- Max % Weight Gain [2, 5]: 4.0%
- Mortality [2, 5]: 0
- EGFR inhibitor related skin rash ([2]; Ex.6: cetuximab treated mice, self-limiting under continuous treatment): skin rash was common
- tumor regression (partial or complete) ([3]; Ex.6: Compound I 25 mg/kg bid, cetuximab 40 mg/kg 2x/wk, irinotecan HCl 40 mg/kg q4d x5 monotherapies, cetuximab + irinotecan combination): no regressions
- % ILS [3, 5]: 27%
- % Inhibition end of study Day: 32 [3, 5]: 58%
- % T/C end of study Day: 32 [3, 5]: 42%
- % Tumor Growth Inhibition [3, 5]: 58%
- Mean Tumor Volume (mm^3) End Study [3, 5]: 885.00 mm^3
- Complete Regression [3, 6]: 0
- Partial Regression [3, 6]: 0
- 50% Treatment Days ([3]; Ex.6: cetuximab 40 mg/kg 2x/wk ip, median survival): 38 days
- # animals ≧ 20% BWL [4, 7]: 0
- % Change in Body Weight at end of Study Day 34 [4, 7]: 7.2%
- Max % Weight Gain [4, 7]: 8.9%
- Max % Weight Loss [4, 7]: 3.7%
- Mortality [4, 7]: 0
- EGFR inhibitor related skin rash ([4]; Ex.5: cetuximab treated mice, self-limiting under continuous treatment): skin rash was common
